## Measured affinities in a library of Ab-14 light chain variants

The measurements come from Li et al. 2023 (doi:10.1038/s41467-023-39022-2) through the FLAb antibody collection.

All variants were tested on one target, the spike HR2 peptide PDVDLGDISGINAS (SARS-CoV-2).

Parent: Ab-14, a human scFv built as VH, three GGGGS repeats, VL. Only the CDRs of the light chain vary.
VH: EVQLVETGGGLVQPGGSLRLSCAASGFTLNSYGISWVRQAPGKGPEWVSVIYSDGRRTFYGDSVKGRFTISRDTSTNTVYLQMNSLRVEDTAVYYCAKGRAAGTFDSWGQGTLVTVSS
VL: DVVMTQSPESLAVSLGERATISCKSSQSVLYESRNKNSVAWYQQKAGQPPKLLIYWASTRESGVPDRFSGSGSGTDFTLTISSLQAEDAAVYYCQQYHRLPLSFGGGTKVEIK

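Phage display of a naive human antibody library on the peptide gave the parent. These sequences belong to a second round, designed from the earlier measurements on random variants of the parent. Several design methods are mixed in this list. The scFvs were displayed on barcoded MATa yeast, the peptide on MATalpha yeast. Pairs that bind mate more often; barcode pairs of the diploids are counted by sequencing. The ratio of observed to expected reads was calibrated, replicate by replicate, on BCL2-family standards whose Kd was known from biolayer interferometry. Mating was done six times.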

The parent's light chain CDRs are KSSQSVLYESRNKNSVA, WASTRES, QQYHRLPLS; each variant's own CDRs replace them letter for letter.
Values are log10 of the apparent Kd in nM; lower means stronger binding.
Replicates are averaged; those with no signal do not enter the mean.
"nd" means that the variant was in the library but no mating with the target was seen in any replicate; the authors take this as a sign of poor binding, and no number exists.

{"CDR-L1": "KLQQSHLYESRNKNSVA", "CDR-L2": "EASTRES", "CDR-L3": "QQYHRLPLS", "mean, log10 nM": "-0.37", "seen in": "6 of 6"}
{"CDR-L1": "KFSQSVLYESRNTNSVA", "CDR-L2": "YASTRES", "CDR-L3": "QQYHYLPLS", "mean, log10 nM": "0.88", "seen in": "6 of 6"}
{"CDR-L1": "KSSQSVLYESRNKASVA", "CDR-L2": "WASTRES", "CDR-L3": "QQYHYLPLS", "mean, log10 nM": "2.07", "seen in": "4 of 30"}
{"CDR-L1": "KSSQSVLYESSNKNSVA", "CDR-L2": "WAQTRES", "CDR-L3": "QQYHRLPLS", "mean, log10 nM": "0.12", "seen in": "1 of 6"}
{"CDR-L1": "KSSISYLEESRNKNSVA", "CDR-L2": "EASTREG", "CDR-L3": "QQYHRLPLS", "mean, log10 nM": "0.14", "seen in": "6 of 6"}
{"CDR-L1": "MFAGAMYGGGNDWSNIA", "CDR-L2": "EAMTYIK", "CDR-L3": "QQYSRLPLI", "mean, log10 nM": "nd", "seen in": "0 of 6"}
{"CDR-L1": "ALTNEFESVNHHKNNIA", "CDR-L2": "HTSQRCM", "CDR-L3": "QQYATLPLS", "mean, log10 nM": "0.51", "seen in": "6 of 6"}
{"CDR-L1": "KLRQSYHIESFNKNNVA", "CDR-L2": "EMTTRES", "CDR-L3": "QSYDRLPLS", "mean, log10 nM": "1.39", "seen in": "6 of 6"}
{"CDR-L1": "KSSQSVLYESRNKNSVA", "CDR-L2": "WCSTRES", "CDR-L3": "QQYHRLPLS", "mean, log10 nM": "1.56", "seen in": "1 of 6"}
{"CDR-L1": "KLQSVTGTEKVHGNNVA", "CDR-L2": "EMETREK", "CDR-L3": "QQYNRLPLS", "mean, log10 nM": "-0.09", "seen in": "6 of 6"}
{"CDR-L1": "KSSQSHLYESGNKNSVA", "CDR-L2": "HASTRES", "CDR-L3": "QQYHRLPLS", "mean, log10 nM": "0.83", "seen in": "6 of 6"}
{"CDR-L1": "KLMNSMLYESRNVNNVA", "CDR-L2": "QASQREL", "CDR-L3": "QQYHRLPLS", "mean, log10 nM": "-0.13", "seen in": "6 of 6"}
{"CDR-L1": "KLREVQHVEIKQKNNVA", "CDR-L2": "DNDTRES", "CDR-L3": "QDYYRLPLS", "mean, log10 nM": "2.93", "seen in": "1 of 6"}
{"CDR-L1": "KINGVEINFGEDWNAIA", "CDR-L2": "EENLSNL", "CDR-L3": "QQYFHLPLS", "mean, log10 nM": "2.72", "seen in": "1 of 6"}
{"CDR-L1": "KLRQSTLYESRNWNSVA", "CDR-L2": "NASTRES", "CDR-L3": "QQYHRLPLS", "mean, log10 nM": "0.38", "seen in": "6 of 6"}
{"CDR-L1": "KLPQSDLYESRNKNSVA", "CDR-L2": "EASQRES", "CDR-L3": "QQYHRLPLS", "mean, log10 nM": "-0.23", "seen in": "6 of 6"}
{"CDR-L1": "KSSQSMLYESQNKNSVA", "CDR-L2": "WASTRES", "CDR-L3": "QQYHRLPLS", "mean, log10 nM": "0.66", "seen in": "6 of 6"}
{"CDR-L1": "HMSQVTMYGYWNKNSVA", "CDR-L2": "QTSTREE", "CDR-L3": "QQYDHLPLS", "mean, log10 nM": "1.96", "seen in": "4 of 6"}
{"CDR-L1": "MLSMMHAMGYNKESSIA", "CDR-L2": "DAEALNS", "CDR-L3": "QQYNELPLS", "mean, log10 nM": "2.45", "seen in": "1 of 6"}
{"CDR-L1": "SMAYFQGGYNQQEKAIA", "CDR-L2": "ESATRTQ", "CDR-L3": "QQYFRLPLT", "mean, log10 nM": "nd", "seen in": "0 of 6"}
{"CDR-L1": "KLSFSWLYESRNKNSVA", "CDR-L2": "NASQRES", "CDR-L3": "QQYHRLPLS", "mean, log10 nM": "0.24", "seen in": "6 of 6"}
{"CDR-L1": "KVSNQADYEDRMKNSVA", "CDR-L2": "DASTRES", "CDR-L3": "QQYHRLPLS", "mean, log10 nM": "0.33", "seen in": "6 of 6"}
{"CDR-L1": "KLVNFMNRGTHHTSNIA", "CDR-L2": "DAQNRID", "CDR-L3": "QQYYRLPLA", "mean, log10 nM": "0.51", "seen in": "6 of 6"}
{"CDR-L1": "KLSLFSLHGDLPWSAVA", "CDR-L2": "NEVVRLA", "CDR-L3": "QQYFRLPIH", "mean, log10 nM": "1.27", "seen in": "6 of 6"}
{"CDR-L1": "KVSVSQPYETRNKNSVA", "CDR-L2": "NASTREE", "CDR-L3": "QQYHRLPLS", "mean, log10 nM": "0.10", "seen in": "6 of 6"}
{"CDR-L1": "QLEFEALGGANYDYSIA", "CDR-L2": "AQDVAMP", "CDR-L3": "QQYDRLPLI", "mean, log10 nM": "1.79", "seen in": "1 of 6"}
{"CDR-L1": "KLVNFMNRGTHHTSNIA", "CDR-L2": "DAQNRLD", "CDR-L3": "QQYARLPLA", "mean, log10 nM": "0.12", "seen in": "6 of 6"}

Picked from the list: the 3 lowest averages where every replicate gave a value.

{"CDR-L1": "KLQQSHLYESRNKNSVA", "CDR-L2": "EASTRES", "CDR-L3": "QQYHRLPLS", "mean, log10 nM": "-0.37", "seen in": "6 of 6"}
{"CDR-L1": "KLPQSDLYESRNKNSVA", "CDR-L2": "EASQRES", "CDR-L3": "QQYHRLPLS", "mean, log10 nM": "-0.23", "seen in": "6 of 6"}
{"CDR-L1": "KLMNSMLYESRNVNNVA", "CDR-L2": "QASQREL", "CDR-L3": "QQYHRLPLS", "mean, log10 nM": "-0.13", "seen in": "6 of 6"}

Some sequences occur more than once in the pool; their replicates are pooled.
Values of this round are not directly comparable with the first-round values of the same sequences.
The authors averaged sequences with at least three values out of six and counted those with two or fewer as poor binders.
Empty control strains, which show no peptide, gave a signal in 4% of pairings with all light chain designs; the median was 2.64 and 95% of these signals were weaker than 1.59. No background was subtracted.